According to publication PMC7123434, “Development of High-Throughput Fluorescent-Based Screens to Accelerate Discovery of P2X Inhibitors from Animal Venoms” (Journal of Natural Products, 2019):

Legend:
hP2X4 [1] = molecular target: T1, hP2X4 (Homo sapiens, UniProt Q99571); assay: Fura-2 AM [Ca2+]i assay on 1321N1-hP2X4 cells; assay type: cell-based; conditions: Fura-2 AM HTS assay
T1 construct: expressed in transfected cells
T1 sequence (Q99571 1-388): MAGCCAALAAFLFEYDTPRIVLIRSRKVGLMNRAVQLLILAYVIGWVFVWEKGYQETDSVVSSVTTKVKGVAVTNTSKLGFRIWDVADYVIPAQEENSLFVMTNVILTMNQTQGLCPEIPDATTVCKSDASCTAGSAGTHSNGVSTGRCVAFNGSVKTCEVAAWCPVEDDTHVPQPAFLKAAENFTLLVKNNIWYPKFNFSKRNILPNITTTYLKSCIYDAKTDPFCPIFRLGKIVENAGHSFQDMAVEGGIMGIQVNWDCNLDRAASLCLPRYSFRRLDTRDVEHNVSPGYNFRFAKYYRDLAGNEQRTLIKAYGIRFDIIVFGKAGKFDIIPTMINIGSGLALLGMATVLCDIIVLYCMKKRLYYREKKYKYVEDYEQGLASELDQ

hP2X4 [2] = molecular target: T1, hP2X4; assay: YOPRO-1 dye uptake assay on HEK293-hP2X4 cells; assay type: cell-based; conditions: HEK-hP2X4; YOPRO-1 HTS assay
Procedure: This method was adapted and further optimized from Patrice et al.[50] One day prior to measurements, HEK293-hP2X4 and HEK293-hP2X7 cells were plated on poly-D-lysine-coated 96-well plates at 2 × 10^4 cells/well. After 24 h, the culture media was aspirated, and 80 μL of YOPRO-1 assay buffer (145 mM NaCl, 5 mM KCl, 0.1 mM CaCl2, 13 mM D-glucose, 10 mM HEPES; pH 7.35) with 2 μM YOPRO-1 was applied. […] The injection volume was 10 μL with a 150 μL pipet height and rate of 4 (∼62 μL/s). The run time was 300 s with a 3.9 s interval, 6 reads/well, and 77 reads in total. Measurement parameters were as follows: bottom reading, excitation wavelength (490 nm), emission wavelength (520 nm).

Cc1ccc(S(=O)(=O)N2c3ccccc3Oc3ccccc32)cc1 [PSB12062]
IC50 (hP2X4 [1]): 420 nM
IC50 (hP2X4 [2]): 760 nM
